US10894048B2, “Antitumor drug for intermittent administration of FGFR inhibitor” (priority 2013, dated 2021)
Where two headings read alike, the source gives them in different places.

Columns and labels:
[1] = female SD rats
[2] = nude mice

In the case of C=CC(=O)N1CC[C@H](n2nc(C#Cc3cc(OC)cc(OC)c3)c3c(N)ncnc32)C1 [Ex. Compound 2, (S)-1-(3-(4-amino-3-((3,5-dimethoxyphenyl)ethynyl)-1H-pyrazolo[3,4-d]pyrimidin-1-yl)pyrrolidin-1-yl)prop-2-en-1-one], the body weight change ([1]; 15 mg/kg/day 14-day daily administration) is reported as “body weight gain was suppressed”, the body weight change ([1]; 30 mg/kg/day 8-day daily administration) is reported as “body weight loss was observed” and the body weight change ([1]; all intermittent administration groups) is reported as “body weight gain was observed”. For the same molecule, the body weight change ([2]; 100 mg/kg/day daily) was “body weight loss was observed”, the mortality ([2]; 100 mg/kg/day daily) was “one case died” and the body weight change ([2]; 350 mg/kg/day twice a week) was “body weight changes similar to that of the control group”. The body weight change ([2]; 700 mg/kg/day once a week) was “body weight changes similar to that of the control group”.
